# Binding of CDR-mutated scFvs to a peptide of the spike HR2 region

Target: peptide PDVDLGDISGINAS, taken from heptad repeat 2 (HR2) of SARS-CoV-2 spike.

Ab-14 is the parent antibody, in scFv form: VH, then three GGGGS repeats, then VL. The light chain is unchanged in all variants.
VH: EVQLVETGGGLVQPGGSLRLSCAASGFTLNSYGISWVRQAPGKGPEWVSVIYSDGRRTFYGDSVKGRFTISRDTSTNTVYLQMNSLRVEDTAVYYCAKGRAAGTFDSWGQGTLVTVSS
VL: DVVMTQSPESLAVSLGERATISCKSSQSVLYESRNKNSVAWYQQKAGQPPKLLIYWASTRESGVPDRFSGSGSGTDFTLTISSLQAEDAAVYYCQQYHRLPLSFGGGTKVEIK

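Library AAYL49 holds single substitutions and randomly drawn double and triple substitutions in the CDRs. In AlphaSeq, yeast of one mating type display the scFv and yeast of the other type display the target. Binding brings cells together so that they mate, and sequencing counts the barcode pairs among the diploids. Read counts were normalised to the haploid input and turned into Kd by a linear fit to BCL2-family pairs of known affinity, for each replicate. Each pool was mated in three replicate cultures.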

Variants are written as CDR1, CDR2 and CDR3 of the heavy chain (limits as in the source). Parent: GFTLNSYGIS, VIYSDGRRTFYGDSVK, GRAAGTFDS. Every variant below is changed at Y32 of the VH (sequential numbering). Scale: log10 of Kd in nM, estimated from mating counts; low values are strong binders. A mean of the replicates is given; it leaves out those without a signal. Where no diploid with the target was found in any replicate, the entry reads "nd": below detection, most likely a poor binder, though not proof of it. Three control strains display no target. For library AAYL49, 15% of the pairings with them gave a signal, with a median of 4.06 and one signal in twenty below 2.83, so weak values seen in few replicates may be background.

For GFTLNSGGIS | VIYSDERRTFYGSSVK | GRAAGTFDS, the assay gave 4.24 (3 of 3 replicates). For GFTLNRQGIS | VIYSDGRRTCYGDSVK | GRAAGTFDS, the assay gave 2.78 (3 of 3 replicates). For GFTLNSKGIS | VIYSDGRRTFYVDSVK | GRAAGPFDS, the assay gave nd (0 of 3 replicates). The variant GFTLNSCGIS | VIYSDGRRTFYGDSVK | SRAANTFDS showed nd (0 of 3 replicates). The variant GFTLNSDGIS | VIYSDGRRTFYFDSVE | GRAAGTFDS showed nd (0 of 3 replicates). The variant GFTLNSDAIS | QIYSDGRRTFYGDSVK | GRAAGTFDS gave 4.24 (1 of 3 replicates). The variant GFTLNSGGIS | VIYSDGRRTFYGDSVY | GRAAGTFDW showed nd (0 of 3 replicates). The variant GFTLESSGIS | VIYSDGRRTFAGDSVK | GRAAGTFDS showed 3.97 (1 of 3 replicates).

The variant GFTLNSWGIS | VIYSDGCRPFYGDSVK | GRAAGTFDS gave nd (0 of 3 replicates). The variant GFTLNSEGIS | VIYSDGRRTFYGDAVK | GRAAGRFDS showed 2.11 (3 of 3 replicates). With GFTLNSLGIS | VIYSDGRRTFYGDSVK | GRLAGTFVS the result was nd (0 of 3 replicates). For GFTLNSIGIS | YIYSDGRRTYYGDSVK | GRAAGTFDS, the assay gave nd (0 of 3 replicates). With GFTLNSWGIS | VIYSDGRRTDYGDSVK | GRAKGTFDS the result was nd (0 of 3 replicates). For GFTENSRGIS | VIYSDGRRTFMGDSVK | GRAAGTFDS, the assay gave 2.59 (1 of 3 replicates). The variant GFTLNSTGIS | VIYSDGRRTFYGDSVK | GRWALTFDS showed 3.90 (2 of 3 replicates). For GFTLNSRGIS | VIYSDGRRTFYGDSLK | GSAAGTFDS, the assay gave nd (0 of 3 replicates).

With GFTPNSRGIS | VILSDGRRTFYGDSVK | GRAAGTFDS the result was nd (0 of 3 replicates). The variant GFTLNSSGIS | VIYSDGRATFTGDSVK | GRAAGTFDS gave nd (0 of 3 replicates). The variant GFTLNSWGIS | VIYSDGRRTFYGDSVA | GRAWGTFDS gave nd (0 of 3 replicates). The variant GFTLNSPGIS | VIYSDGRATFYGDSVK | GRAAGYFDS gave 4.70 (1 of 3 replicates). The variant RFTLNSNGIS | VIYSDGRRTFYGDHVK | GRAAGTFDS gave 4.61 (3 of 3 replicates). For GFTLNSSGIS | VIYSDGRRTFYGDSAK | GRAAGTFDC, the assay gave 4.35 (2 of 3 replicates). For GFTLNSRFIS | VIYSDGRRTFYGDSVK | GRAAGTFFS, the assay gave 3.74 (1 of 3 replicates). The variant GFTLNSCGIS | VIKSDGRRTFYGDSVK | GRAEGTFDS showed nd (0 of 3 replicates).

For GFTLNSMGIS | VIYSKGRRGFYGDSVK | GRAAGTFDS, the assay gave nd (0 of 3 replicates). The variant TFTANSFGIS | VIYSDGRRTFYGDSVK | GRAAGTFDS gave nd (0 of 3 replicates). With GFTLNSRGIS | PIYSDGRITFYGDSVK | GRAAGTFDS the result was 6.13 (1 of 3 replicates). For GFTLNRAGIS | VIYSDGRRTFYGDSVK | GRAAGTFWS, the assay gave nd (0 of 3 replicates). The variant GFTLNSSGIS | VIYSDGRRTFFGDSVK | GRAAGTADS gave 5.22 (1 of 3 replicates). The variant YFTLNSNGIS | VIYSDGRRTFYGDSVK | GRAAGTFDS showed 1.57 (3 of 3 replicates). The variant GYTLNSSGIS | VIYSDGRRTFYGDSVK | GRAAGTFDS showed nd (0 of 3 replicates). For GFTLVSRGIS | VIYSDGRRTFQGDSVK | GRAAGTFDS, the assay gave 3.55 (2 of 3 replicates).

With GFTLNSCGIS | VIYSDRRRTFYGDSVK | GRAAGTFDS the result was nd (0 of 3 replicates). The variant WFTLNSGGIS | VIYSDGRRTFYGDSVK | GRAAGTFDS gave nd (0 of 3 replicates). For GFWLNSDGIS | VIYSDGRRTFYGDSVK | GDAAGTFDS, the assay gave 3.96 (2 of 3 replicates). The variant GFTLNCQGIS | VIQSDGRRTFYGDSVK | GRAAGTFDS showed nd (0 of 3 replicates). With FFTLHSRGIS | VIYSDGRRTFYGDSVK | GRAAGTFDS the result was nd (0 of 3 replicates). With GFTLNSTGIS | VIYSDGRRTFYGDSVK | GRAAGTTDS the result was 2.10 (1 of 3 replicates). The variant GFTLKSFGIS | VIYSDGRRTFYGDSVK | GRAAGTFIS showed nd (0 of 3 replicates). With QFTLNSIGIS | VIYSDGRRTEYGDSVK | GRAAGTFDS the result was nd (0 of 3 replicates).

For reference, 5 entries of the list once more:

With GFTLNSTGIS | VIYSDGRRTFYGDSVK | GRWALTFDS the result was 3.90 (2 of 3 replicates).
With GFTLNSEGIS | VIYSDGRRTFYGDAVK | GRAAGRFDS the result was 2.11 (3 of 3 replicates).
With WFTLNSGGIS | VIYSDGRRTFYGDSVK | GRAAGTFDS the result was nd (0 of 3 replicates).
With GFTLKSFGIS | VIYSDGRRTFYGDSVK | GRAAGTFIS the result was nd (0 of 3 replicates).
With GFTLNSGGIS | VIYSDGRRTFYGDSVY | GRAAGTFDW the result was nd (0 of 3 replicates).

For reference, the parent read 0.65 as the reference entry and 4.11 (one replicate of three) as a member of this library.

Data: MIT Lincoln Laboratory AlphaSeq set, Engelhart et al. 2022, doi:10.1038/s41597-022-01779-4, as distributed in FLAb.